Data as given in patent US20260102380A1, “Synthesis and Characterization of Cyclic Hydrocarbon Esters of Everolimus” (BIOTRONIK AG, priority 2022, published 2026).
Several values for one entry are separate records, joined by “and”; a condition that tells them apart may be missing. Identical values can stand only once.

Experiment: Elution study on porcine coronary artery
Settings: for Percent of Drug Eluted Over Time: samples 1 and 2

## everolimus cyclohexane ester [CRC-023]
0.5 hours, approx. 125 μg drug on 1 cm vessel section, 25% ethanol/saline, 37° C.
  Percent of Drug Eluted Over Time: 1% and 2%
1 hour, approx. 125 μg drug on 1 cm vessel section, 25% ethanol/saline, 37° C.
  Percent of Drug Eluted Over Time: 3% and 4%
2 hours, approx. 125 μg drug on 1 cm vessel section, 25% ethanol/saline, 37° C.
  Percent of Drug Eluted Over Time: 9% and 7%
3 hours, approx. 125 μg drug on 1 cm vessel section, 25% ethanol/saline, 37° C.
  Percent of Drug Eluted Over Time: 16% and 9%
23 hours, approx. 125 μg drug on 1 cm vessel section, 25% ethanol/saline, 37° C.
  Percent of Drug Eluted Over Time: 35% and 31%
Extract (after extraction, following 23 hours of elution)
  Percent of Drug Eluted Over Time: 68% and 65%
Porcine coronary arterial tissue, 25% ethanol/saline, 37° C.
  Elution behavior from vessel tissue (in words): slowly eluted, with most of the drug recovered after extraction
